Assay results published in patent publication US20260103465A1, “GLYCOGEN SYNTHASE KINASE 3 INHIBITORS AND USES THEREOF” (The Broad Institute, Inc., priority 2023, published 2026).

Chains of the proteins cited; added tags and fusions are not shown.
UniProt P49840, whole entry: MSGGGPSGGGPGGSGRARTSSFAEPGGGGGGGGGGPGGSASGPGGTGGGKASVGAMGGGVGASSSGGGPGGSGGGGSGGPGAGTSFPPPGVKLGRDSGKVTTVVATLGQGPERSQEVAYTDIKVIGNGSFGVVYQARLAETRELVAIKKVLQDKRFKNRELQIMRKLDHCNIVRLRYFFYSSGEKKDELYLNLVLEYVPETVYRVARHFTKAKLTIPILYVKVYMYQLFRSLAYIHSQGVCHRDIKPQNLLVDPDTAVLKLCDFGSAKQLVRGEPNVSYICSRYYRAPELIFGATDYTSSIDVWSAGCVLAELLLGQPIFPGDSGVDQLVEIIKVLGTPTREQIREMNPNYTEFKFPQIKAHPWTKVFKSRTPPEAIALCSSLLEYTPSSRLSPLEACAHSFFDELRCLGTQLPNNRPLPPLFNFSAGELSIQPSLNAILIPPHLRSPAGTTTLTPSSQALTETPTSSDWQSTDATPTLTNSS
UniProt P49841, whole entry: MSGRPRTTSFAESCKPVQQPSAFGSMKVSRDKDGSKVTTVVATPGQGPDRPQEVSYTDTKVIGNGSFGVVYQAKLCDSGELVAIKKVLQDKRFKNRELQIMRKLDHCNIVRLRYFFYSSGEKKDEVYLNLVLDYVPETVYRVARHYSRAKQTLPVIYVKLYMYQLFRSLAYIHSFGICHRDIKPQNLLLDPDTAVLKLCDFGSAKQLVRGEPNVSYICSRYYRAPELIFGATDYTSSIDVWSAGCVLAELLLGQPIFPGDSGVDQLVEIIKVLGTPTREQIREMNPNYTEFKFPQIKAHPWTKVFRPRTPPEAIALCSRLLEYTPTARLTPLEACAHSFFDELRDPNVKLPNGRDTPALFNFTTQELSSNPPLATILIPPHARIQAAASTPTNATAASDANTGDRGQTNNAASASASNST

Assays:
[1] = molecular target: GSK3a (GST-full length GSK3a) (Homo sapiens, UniProt P49840); test: GSK3a TR-FRET kinase inhibition assay; details: read-out: GSK3a TR-FRET 1 mM ATP Average IC50, Table 3
Method: (§1) TR-FRET assay was performed in a white, 384 well, low volume, flat bottom plate (Grenier). After a 30 minute preincubation in assay buffer with the indicated concentration of compound, the kinase activity was initiated by the addition of the substrates. 1 nM GSK3a (GST-full length GSK3a [SignalChem G08-10G]) or 1 nM GSK3b (GST-full length GSK3b: [SignalChem G08-9G]) were then incubated at ambient temperature for 100 minutes in 10 μl of 50 mM Tris, pH 7.5, 20 mM MgCl2, 0.05 mM DTT, 100 μg/ml BSA and 1% DMSO, with 200 nM biotinylated peptide substrate (biotinylated and S645 phosphorylated glycogen synthase 631-650) and ATP (e.g., at 2 μM, 4 μM, 10 μM, 100 μM, or 1 mM). The kinase activity was quenched with 2 μl of 250 mM EDTA. A 10 μl volume of 40 nM Strepavidin-d2, 2 nM […] antibody in TR-FRET Detection Buffer (Invitrogen) was then added. After 60 min at room temperature the plate was read on Envision plate reader using Ex: 340 nm, Em: 615 nm and […]. The normalized 665/615 Signal ratio versus log compound concentration was analyzed by XLFIT to yield IC50 values.

[2] = molecular target: GSK3b (GST-full length GSK3b) (Homo sapiens, UniProt P49841); test: GSK3b TR-FRET kinase inhibition assay; details: read-out: GSK3b TR-FRET 1 mM ATP Average IC50, Table 3
Method: as §1

An IC50 [1] of 5 to 20 µM and an IC50 [2] of 5 to 20 µM were found for `COc1cncc(F)c1-c1cccc(C2(C)C3=C(CC(C)(C)CC3=O)Nc3ncc(CC(C)(C)C)cc32)c1` (single isomer, unassigned) in this work.
